In US20120273099A1, “REDUCED TOXICITY HYPERGOLIC PROPELLANTS” (published 2012):

What was measured:
[1] = cited from earlier work; for carcinogenicity / irritation / harm on contact or inhalation / hazard on ingestion: according to MSDS; for recognized hazard of state-of-the-art propellant components: background statement; for vapor pressure: in words
[2] = Dissolution of sodium borohydride in solvent; conditions: in DMF
[3] = Storage stability / propellant degradation over time; conditions: Table 2, grade in words

Row | Compound | carcinogenicity [1] | irritation / harm on contact or inhalation [1] | hazard on ingestion [1] | recognized hazard of state-of-the-art propellant components [1] | other results
1 | sodium borohydride | not carcinogenic | capable of causing severe irritation and burns if eaten or let into contact with skin | – | – | concentration up to which sodium borohydride completely dissolves [2]: approximately 18 % by weight
2 | tetraethyl glycol dimethyl ether | not listed as a carcinogen | irritant that can affect the skin, eyes, and digestive track | can be lethal | – | –
3 | NN | – | – | – | carcinogenic | –
4 | CN(C)C=O | – | irritant that can be harmful if inhaled or spilled onto skin | may potentially cause liver damage | – | mutagenicity ([1]; MSDS, chronic exposure): may result in mutagenic effects; vapor pressure [1]: low
5 | monomethylhydrazine | – | – | – | – | Toxicity/Mutagenicty ([1]; Table 2): Both, with moderate; Low Temperature Storage [3]: Good; Room Temperature Storage [3]: Good
6 | nitrogen tetroxide | – | – | – | toxic and lethal upon acute exposure | –
7 | COCCOCCOCCOC | no recognizable carcinogens or toxins | may cause irritation | – | – | vapor pressure [1]: low
8 | O=[N+]([O-])O | – | – | – | extremely corrosive | –
9 | C[S+](C)[O-] | no recognized carcinogenic components | irritant that can be harmful if inhaled or spilled onto skin | can be lethal | – | –
